## Yeast mating assay 2: variants of the scFv Ab-95

Reference: Engelhart et al. 2022, doi:10.1038/s41597-022-01779-4. File: FLAb, binding data.

Antigen: PDVDLGDISGINAS, a 14-residue peptide of the SARS-CoV-2 spike HR2 region.

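The starting antibody came from a phage panning campaign against this peptide. Variants in AAYL52 differ from the parent at up to three CDR positions; double and triple changes were sampled at random. The scFvs were displayed on barcoded MATa yeast, the peptide on MATalpha yeast. Binding brings cells together so that they mate, and sequencing counts the barcode pairs among the diploids. Each replicate has its own calibration line, from reference interactions of the BCL2 family. Mating was done three times.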

Parent scFv Ab-95: VH joined to VL by a (GGGGS)3 linker. Changes lie in the light chain CDRs alone.
VH: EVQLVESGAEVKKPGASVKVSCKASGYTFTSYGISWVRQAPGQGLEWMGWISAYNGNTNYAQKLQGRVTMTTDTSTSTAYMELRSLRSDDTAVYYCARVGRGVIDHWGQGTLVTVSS
VL: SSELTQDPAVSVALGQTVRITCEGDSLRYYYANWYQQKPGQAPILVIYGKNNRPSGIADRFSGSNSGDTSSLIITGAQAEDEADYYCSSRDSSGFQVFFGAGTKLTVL

Positions count from residue 1 of the parent VL; A32P puts P in place of A.
Every variant below is changed at S55 of the VL (sequential numbering).
Each Kd is an estimate from the mating assay, the geometric mean of the replicates in which the pair was seen; lower is stronger.
A pair that was not seen in any replicate is written "no signal"; this usually means weak binding, but a binder can also be missed.

changes	Kd	detected
A32P N33H S55G	33 µM	3/3
Y31F S55R	800 nM	3/3
A32Y S55I R90K	8.1 µM	1/3
S55Y S88P G94D	260 nM	3/3
L27K R28H S55D	6.4 µM	2/3
S55Q D91E Q96H	no signal	0/3
L27W K50F S55E	no signal	0/3
S26D R53I S55P	4.3 µM	2/3
S55N G94W F95R	12 µM	2/3
S26N S55H F95G	1.1 µM	1/3
Y30R A32S S55M	530 nM	3/3
K50W N51M S55V	49 µM	1/3
S55P S92I	910 nM	3/3
L27F S55G S93V	18 µM	2/3
N33W S55P	3.5 µM	1/3
N52H S55T	680 nM	3/3
E23V S55P F95K	3.1 µM	3/3
Y30N S55D D91T	10 nM	3/3
Y30M S55D Q96A	35 nM	3/3
N33A S55G V97I	no signal	0/3
E23Y S55N G94M	1.3 µM	1/3
E23F S55P D91Y	4.2 µM	3/3
L27W S55R	62 µM	1/3
S55N S93W F95V	170 nM	3/3
E23T S55I	180 nM	3/3
A32N S55M	780 nM	3/3
Y30I S55H S92Q	120 nM	3/3
S55L Q96Y	24 µM	2/3
L27W K50C S55C	no signal	0/3
S26E S55V G94L	46 µM	3/3
R53Q S55L R90L	33 µM	1/3
Y29L N51D S55M	2.8 µM	3/3
G24Q N51Y S55T	19 µM	2/3
R28V N33A S55N	1.6 µM	3/3
A32H S55G D91S	350 nM	3/3
S55Y S92V	35 nM	3/3
S55P S93K V97A	540 nM	3/3
K50W S55K F95M	23 µM	3/3
D25V S55F S89P	6.6 µM	2/3
K50F S55V S88L	22 µM	1/3
S55Y Q96G	4.8 µM	1/3
Y30I S55E S93G	3.2 µM	2/3
S26Y S55L	8.0 µM	2/3
Y29Q S55R V97E	1.3 µM	3/3
S55D F95W F98L	100 nM	3/3
N33H S55G F98S	18 µM	1/3
R53G S55N F95I	no signal	0/3
Y29Q S55G F95E	130 nM	3/3
N51Y S55C F95Q	7.0 µM	3/3
A32V N52D S55I	520 nM	3/3
S55R	490 nM	3/3

From the list, the first 5 with no signal in any replicate:

changes	Kd	detected
S55Q D91E Q96H	no signal	0/3
L27W K50F S55E	no signal	0/3
N33A S55G V97I	no signal	0/3
L27W K50C S55C	no signal	0/3
R53G S55N F95I	no signal	0/3

For reference, the parent read 200 nM as the reference entry and 180 nM as a member of this library.
Empty control strains, which show no peptide, gave a signal in 28% of pairings with library AAYL52; the median was 8.2 µM and 95% of these signals were weaker than 800 nM. No background was subtracted.